The record followed here is PMC9027131, “Dual PI3K/Akt Inhibitors Bearing Coumarin-Thiazolidine Pharmacophores as Potential Apoptosis Inducers in MCF-7 Cells” (Pharmaceuticals, 2022).

The chains behind the UniProt entries cited, without tags or fusion partners. Where a name states a change or a piece, a line headed by the entry shows the natural chain unless it says otherwise.
UniProt P48736: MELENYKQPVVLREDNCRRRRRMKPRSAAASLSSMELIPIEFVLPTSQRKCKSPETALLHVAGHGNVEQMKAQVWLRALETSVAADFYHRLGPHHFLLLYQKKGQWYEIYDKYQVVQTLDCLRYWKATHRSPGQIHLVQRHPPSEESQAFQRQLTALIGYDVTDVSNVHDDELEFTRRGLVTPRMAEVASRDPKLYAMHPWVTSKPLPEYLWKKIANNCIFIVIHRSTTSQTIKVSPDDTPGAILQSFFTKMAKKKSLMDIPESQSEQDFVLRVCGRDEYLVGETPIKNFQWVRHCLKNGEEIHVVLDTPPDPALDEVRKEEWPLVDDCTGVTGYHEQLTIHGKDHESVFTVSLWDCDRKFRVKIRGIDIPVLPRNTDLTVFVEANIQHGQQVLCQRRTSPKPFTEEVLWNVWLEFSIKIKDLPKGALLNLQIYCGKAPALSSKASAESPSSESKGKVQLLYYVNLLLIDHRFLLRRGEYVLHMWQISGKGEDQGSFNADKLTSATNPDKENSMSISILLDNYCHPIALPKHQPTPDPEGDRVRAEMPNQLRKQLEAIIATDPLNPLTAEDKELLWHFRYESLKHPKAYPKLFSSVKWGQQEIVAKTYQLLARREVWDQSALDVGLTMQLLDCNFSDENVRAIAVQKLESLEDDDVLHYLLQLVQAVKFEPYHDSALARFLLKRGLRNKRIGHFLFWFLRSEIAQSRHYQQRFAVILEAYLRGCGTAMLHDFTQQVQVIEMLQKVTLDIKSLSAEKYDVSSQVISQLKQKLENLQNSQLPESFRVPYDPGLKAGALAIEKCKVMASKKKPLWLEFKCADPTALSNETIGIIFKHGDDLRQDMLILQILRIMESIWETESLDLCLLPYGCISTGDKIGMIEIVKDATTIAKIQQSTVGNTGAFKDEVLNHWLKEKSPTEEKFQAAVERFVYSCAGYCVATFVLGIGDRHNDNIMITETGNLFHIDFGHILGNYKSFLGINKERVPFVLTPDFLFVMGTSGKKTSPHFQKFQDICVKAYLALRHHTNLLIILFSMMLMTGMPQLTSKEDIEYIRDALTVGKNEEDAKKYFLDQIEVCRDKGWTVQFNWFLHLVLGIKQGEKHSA

In general, IC50 refers to the concentration that gives 50% inhibition.

The assay concerns the target T1, PI3K-γ (Homo sapiens, UniProt P48736).
T1 construct: purchased BPS Bioscience, Inc 79803
In words: PI3Kγ (p110γ/PIK3R5) enzyme inhibition assay kit. The format is biochemical. The settings on record: means ± sd, n = 3; read-out: IC50 (µM) PI3K-γ Isoform. The source says: Accumulating evidence highlighted that PI3K signaling pathway upregulation is highly implicated in breast cancer development and disease progression as well as resistance to hormones and cytotoxic therapy. Therefore, it is essential to elucidate the effect of the novel compound, VIIb, on the PI3K/Akt signaling pathway by using in vitro PI3K class 1A enzyme inhibition assay conducted on PI3K-α and PI3K-γ isoforms as well as an Akt-1 enzyme inhibition assay. […] Furthermore, targeting the PI3K-γ isoform in breast cancer could contribute to enhancing the anti-tumor immunity.
The in vitro inhibition of PI3K and Akt kinase activities by VIIb was assessed using a PI3Kα (p110α/p85) assay kit (Catalog #79781; BPS Bioscience, Inc, San Diego, CA, USA), PI3Kγ (p110γ/PIK3R5) assay kit (Catalog #79803; BPS Bioscience, Inc, San Diego, CA, USA), and Akt Kinase Activity assay kit (ab139436; Abcam, Cambridge, UK) following the manufacturer’s instructions as described previously. The results were expressed as IC50 values using dose–response curves and linear regression equations. LY294002 compound was taken as the reference compound. The values were means ± sd; n = 3.

Take `O=c1cc(N2CCOCC2)oc2c(-c3ccccc3)cccc12` [LY294002, reference compound]: the IC50 is 11.5 ± 0.62 µM.
